Experimental melting point values from OPERA 2.9

Source: data files of OPERA 2.9 (Mansouri et al.), github.com/kmansouri/OPERA.

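The OPERA project collected these measurements from public sources as training and test data for property models. The files give a single number for a compound and property, which may rest on several reports. Conditions of the individual experiments are not part of the data. A value may pool stereoisomers or salt forms, and the file does not say which form was measured. Some upstream entries may be estimates or bounds without being marked so.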

Melting points are in °C. Cells with "n/a" have no entry in this list.

| SMILES | name | mp (°C) |
|---|---|---|
| CCO[Si](CCC#N)(OCC)OCC | 3-(Triethoxysilyl)propionitrile | -68.6 |
| BrCCC(c1ccccc1)c1ccccc1 | 1,1'-(3-Bromopropylidene)bisbenzene | 40.5 |
| Cc1csc(C/C(N)=N\O)n1 | (1E)-N'-Hydroxy(4-methyl-1,3-thiazol-2-yl)ethanimidamide | 127 |
| CCCCCCCCCCCCCCCC(=O)N[C@H](C(=O)O)[C@@H](C)CC | Isoleucine, N-(1-oxohexadecyl)- | 95.5 |
| Nc1cccc(-c2nc3ccccc3s2)c1 | 3-Benzothiazol-2-yl-phenylamine | 139 |
| CN(C)c1ccc(C(N)=S)cc1 | Benzenecarbothioamide, 4-(dimethylamino)- | 118 |
| CCCCCC1CCC(C2CCC(c3ccc(OCC)c(F)c3F)CC2)CC1 (stereo not given) | n/a | 184.5 |
| CC(=O)CC(=O)Nc1ccc(Br)cc1 | N-(4-Bromophenyl)-3-oxobutanamide | 138 |
| COc1ccc2nc(C(=O)O)ccc2c1 | 6-methoxyquinoline-2-carboxylic Acid | 185 |
| CO[Si](C)(CCl)OC | (Chloromethyl)dimethoxymethylsilane | -63.9 |
| COc1ccc([N+](=O)[O-])cc1N=NC(C(C)=O)C(=O)Nc1ccccc1OC (stereo not given) | n/a | 262 |
| Cc1ccc(S(=O)(=O)c2ccc(O)c(O)c2)cc1 | 1,2-Benzenediol, 4-[(4-methylphenyl)sulfonyl]- | 180.4 |
| COc1ccc(C(N)CC(=O)O)cc1 (stereo not given) | 3-Amino-3-(4-methoxyphenyl)propanoic acid | 238 |
| COC(=O)CS(=O)(=O)c1ccc(Cl)cc1 | Methyl [(4-chlorophenyl)sulfonyl]acetate | 85 |
| O=C(O)c1ccc(NS(=O)(=O)c2ccc(Br)cc2)cc1 | 4-[(4-Bromobenzene-1-sulfonyl)amino]benzoic acid | 268 |
| C=CC(=O)OCCCCOC(=O)Oc1ccc2cc(C(=O)Oc3ccc(OC(=O)c4ccc5cc(OC(=O)OCCCCOC(=O)C=C)ccc5c4)c(C(=O)OC)c3)ccc2c1 | n/a | 105.4 |
| CO[Si](CCCNC(=O)OCCCCCCOC(=O)NCCC[Si](OC)(OC)OC)(OC)OC | n/a | 2.5 |
| COc1ccc(C)cc1NC(=O)CCl | 2-chloro-N-(2-methoxy-5-methylphenyl)acetamide | 74 |
| O=C(O)c1sccc1-c1ccccc1 | 3-phenylthiophene-2-carboxylic Acid | 207 |
| C[C@H]1CC[C@@H]2[C@@H](C)[C@H]3[C@H](C[C@H]4[C@@H]5CC=C6C[C@@H](O)CC[C@]6(C)[C@H]5C[C@H](O)[C@]34C)N2C1 | Rubijervine | 242 |
| Brc1cnc(N2CCCC2)nc1OCc1ccccc1 | 4-(Benzyloxy)-5-bromo-2-(pyrrolidin-1-yl)pyrimidine | 106.5 |
| CC(C)Cc1ccc(C(C)C(=O)NO)cc1 (stereo not given) | Ibuproxam | 123 |
| O=C(NO)C12CC3CC(CC(C3)C1)C2 | n-hydroxyadamantane-1-carboxamide | 111 |
| O=C(c1cccnc1Cl)N1CCCC1 | (2-Chloropyridin-3-yl)(pyrrolidin-1-yl)methanone | 78 |
| CC(C)(C)CC(C)(C)Nc1nc(Cl)nc(Cl)n1 | n/a | 78 |
| CC12CCCC3(C1)C(OC=O)CC(C)(C)C3CC2 (stereo not given) | n/a | -34.16 |
| COc1cc(C#N)cc(Cl)c1O | 3-chloro-4-hydroxy-5-methoxybenzonitrile | 142 |
| C(=Cc1ccccn1)c1ccccn1 | n/a | 118 |
| COC(=O)c1cc(S(=O)(=O)Cl)ccc1O | Methyl 5-(chlorosulfonyl)-2-hydroxybenzoate | 82 |
| CCCC(CCC)CCCC1COCCN1CCO.Cl (stereo not given) | Delmopinol hydrochloride | 67.2 |
| Nc1cccc(-n2cnnc2)c1 | 3-(4H-1,2,4-triazol-4-yl)aniline | 200 |

The 2 highest values of mp among the entries above:

SMILES	name	mp (°C)
O=C(O)c1ccc(NS(=O)(=O)c2ccc(Br)cc2)cc1	4-[(4-Bromobenzene-1-sulfonyl)amino]benzoic acid	268
COc1ccc([N+](=O)[O-])cc1N=NC(C(C)=O)C(=O)Nc1ccccc1OC (stereo not given)	n/a	262